Antibody variant affinities, Ab-91 heavy chain, assay 2

Reference: Engelhart et al. 2022, doi:10.1038/s41597-022-01779-4. File: FLAb, binding data.

Target: peptide PDVDLGDISGINAS, taken from heptad repeat 2 (HR2) of SARS-CoV-2 spike.

Each scFv is VL, a (GGGGS)3 linker, VH, as in the parent Ab-91, and differs from it in the CDRs of the heavy chain only.
VL: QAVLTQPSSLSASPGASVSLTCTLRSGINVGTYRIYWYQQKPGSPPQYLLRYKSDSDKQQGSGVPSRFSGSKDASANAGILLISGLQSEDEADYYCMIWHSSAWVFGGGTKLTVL
VH: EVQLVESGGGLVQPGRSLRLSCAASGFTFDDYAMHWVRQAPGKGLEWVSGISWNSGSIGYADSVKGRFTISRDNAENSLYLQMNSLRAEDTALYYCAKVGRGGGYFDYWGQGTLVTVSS

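Phage display of a naive human antibody library on the peptide gave the parent. In library AAYL51, one, two or three CDR residues were substituted; doubles and triples were drawn at random. Affinity was read by AlphaSeq, a pooled yeast mating assay with surface-displayed partners. Mating (16 h, 30 °C) was followed by selection of diploids and sequencing of their barcodes. The ratio of observed to expected reads was calibrated, replicate by replicate, on BCL2-family standards whose Kd was known from biolayer interferometry. The assay was run in three technical replicates.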

Positions count from residue 1 of the parent VH; S57E puts E in place of S. All variants listed here change I58 of the VH, counted from its first residue. Each Kd is an estimate from the mating assay, the geometric mean of the replicates in which the pair was seen; lower is stronger. "no signal" marks a missing value. The strain was present, yet no cells mated with the target were sequenced in any replicate, which points to weak or no binding. Order: sorted from the lowest average up, undetected variants last. Empty control strains, which show no peptide, gave a signal in 21% of pairings with library AAYL51; the median was 34 µM and 95% of these signals were weaker than 1.8 µM. No background was subtracted. In this assay the parent's reference entry averaged 72 nM; its copy inside this library read 7.5 nM.

- S57E/I58R -> 15 nM (3 of 3 replicates)
- I58T/G103E -> 19 nM (3 of 3 replicates)
- I58Y/Y108R -> 19 nM (3 of 3 replicates)
- G56R/I58H/Y108N -> 37 nM (3 of 3 replicates)
- M34V/I58M/Y105I -> 130 nM (3 of 3 replicates)
- W53I/I58F -> 160 nM (3 of 3 replicates)
- I58P/Y60F -> 1.0 µM (1 of 3 replicates)
- G56M/I58G/G100E -> 1.4 µM (3 of 3 replicates)
- M34V/I58E/Y60T -> 1.9 µM (1 of 3 replicates)
- I58V/A61N/D107I -> 2.5 µM (2 of 3 replicates)
- I58V -> 2.7 µM (2 of 3 replicates)
- D31Q/N54T/I58G -> 8.1 µM (1 of 3 replicates)
- S55C/S57I/I58N -> 8.2 µM (3 of 3 replicates)
- I58Y/G103M/D107T -> 8.4 µM (1 of 3 replicates)
- I58E/Y60C/V99F -> 11 µM (3 of 3 replicates)
- M34H/I58V/G100E -> 29 µM (3 of 3 replicates)
- F29S/I58W -> 30 µM (3 of 3 replicates)
- I58E/G102N/Y105D -> 34 µM (1 of 3 replicates)
- I51C/I58F -> 42 µM (1 of 3 replicates)
- I58N/V64H/G102Q -> 48 µM (1 of 3 replicates)
- Y32H/I58E/G102H -> 50 µM (3 of 3 replicates)
- S57Q/I58H/G104A -> 61 µM (1 of 3 replicates)
- G50D/I58D/Y105D -> 67 µM (3 of 3 replicates)
- I58A/Y60D/G100Y -> 110 µM (1 of 3 replicates)
- I58V/F106Y -> 230 µM (1 of 3 replicates)
- I51S/I58P/G100L -> 320 µM (3 of 3 replicates)
- S52F/I58E/G59Y -> no signal (0 of 3 replicates)
- D31H/I58H/G103Y -> no signal (0 of 3 replicates)
- W53F/I58V/G59P -> no signal (0 of 3 replicates)
- I58M/K65N/G102A -> no signal (0 of 3 replicates)
- M34A/I58T/V64A -> no signal (0 of 3 replicates)
- I58Q/D107F/Y108R -> no signal (0 of 3 replicates)
- S57T/I58D/V64H -> no signal (0 of 3 replicates)
- I58Y/V99K/G102E -> no signal (0 of 3 replicates)
- I58T/Y108C -> no signal (0 of 3 replicates)
- T28C/I58D/G100M -> no signal (0 of 3 replicates)
- T28Y/G50S/I58M -> no signal (0 of 3 replicates)